Assay results reported in ChEMBL document CHEMBL3244068 (J Med Chem, 1978).

Assay: Stability of the compound in acetone assessed as hydrolysis at 66 degC after 30 mins
Details: 0.5 h

`Cc1cccc(N(CCCl)CCCl)c1` showed a log(%) of 1.32.

Some compounds may have been tested in ways that are not shown here.
